Test results published in patent US9545416B2, “Combination therapy using ribavirin as eIF4E inhibitor” (Universite de Montreal, priority 2011, dated 2017).

The chains behind the UniProt entries cited, without tags or fusion partners.
UniProt P06730, whole entry: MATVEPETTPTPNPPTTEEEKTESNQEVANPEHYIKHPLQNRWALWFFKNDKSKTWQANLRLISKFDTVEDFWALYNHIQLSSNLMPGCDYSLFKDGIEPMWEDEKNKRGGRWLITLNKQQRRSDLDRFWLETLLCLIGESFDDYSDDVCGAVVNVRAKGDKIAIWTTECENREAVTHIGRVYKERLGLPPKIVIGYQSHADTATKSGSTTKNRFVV

Legend:
[1] = system: F10R cells; assay: Cell number / growth assay, F10R resistant cells; type: cell-based; settings: 10 μM ribavirin
Method: (FIG. 6). Gli-1 knockdown experiments were performed in parallel.

[2] = system: ENT1; assay: ENT1 RNA levels in patients (RT-qPCR); type: in vivo, human; settings: Patient 11 (CR), after 9 cycles of treatment
[3] = system: Gli-1 mRNA; assay: Gli-1 mRNA levels in patient specimens (qRT-PCR); type: in vivo, human; settings: 6 responding patients with specimens at relapse
Source text: Gli-1 mRNA levels were monitored in patients before, during, and after response in patients receiving ribavirin monotherapy. To date, the non-responding patients before treatment had over 20 fold elevated ribavirin levels. These levels were not reduced during ribavirin treatment, indeed for one case that there is available data, the Gli-1 levels nearly doubled. For responding patients, in all cases Gli-1 mRNA levels were higher at resistance than during response. In some cases, ribavirin levels started high in the before treatment sample and then were reduced (for instance, patient 17 had 20× Gli-mRNA before treatment, 5.8 during blast response and 26× at relapse), whereas in other cases, Gli-1 mRNA levels started low and then became elevated at relapse (for instance, patient 10 had 1.3× Gli-1 mRNA before treatment relative to normal, 1.6× during response and 3.6× at relapse).
The molecular features identified in present studies were examined to determine whether they were relevant to specimens from patients that received ribavirin monotherapy in the multi-centre phase II AML trial. For responding patients, all available specimens before treatment were monitored, during clinical response, upon the onset of relapse and in non-responders when possible. […] Gli-1 mRNA levels were monitored using qRT-PCR. […]

[4] = biological target: T1, eIF4E (Homo sapiens, UniProt P06730); assay: Immunoprecipitation of labelled (3H/14C) ribavirin with eIF4E in living cells; type: binding
T1 construct: ^14C ribavirin is enriched in the eIF4E immunoprecipitated fraction by about 20 fold relative to the IgG control; endogenous in cells; host or cells: parental FaDu, F10R and F100R resistant cells
Source text: NMR, fluorescence, and mass spectrometry studies indicate that ribavirin directly binds eIF4E. ^3H ribavirin binds to eIF4E in living cells as shown by the 14-fold enrichment of ^3H ribavirin in eIF4E immunoprecipitations relative to controls. […] Ribavirin sensitivity parallels eIF4E sensitivity and inhibits both the nuclear and cytoplasmic functions of eIF4E. Importantly, ribavirin affects primary AML specimens with elevated eIF4E more than specimens with normal eIF4E levels. In total, it appears that these AML specimens have developed an “oncogene addiction” to eIF4E making them more sensitive to inhibition of eIF4E than specimens with normal eIF4E levels. The clinical utility of ribavirin treatment in M4/M5 AML patients was investigated.
It was determined whether ^14C-ribavirin could immunoprecipitate with eIF4E in the F10R and F100R resistant cell lines. […]
It was hypothesized that glucuronidation of ribavirin impairs its association with eIF4E. The ability of eIF4E to immunopreciptate with ^14C-ribavirin in conditions that varied in Gli-1 and UGT activity was monitored to determine if reversion of resistance correlated with re-association of ribavirin with eIF4E. Cells were treated for 24 hours with ^14C-ribavirin followed by cross-linking and immunoprecipitation and evaluated relative to IgG controls.

[5] = system: relapsed/refractory M4/M5 AML; settings: monotherapy, all patients
[6] = system: ADK; assay: ADK RNA levels in patients (RT-qPCR); type: in vivo, human; settings: Patient 11 (CR), after 9 cycles of treatment

Compound: NC(=O)c1ncn([C@@H]2O[C@H](CO)[C@@H](O)[C@H]2O)n1 [ribavirin, 1-[(2R,3R,4S,5R)-3,4-dihydroxy-5-(hydroxymethyl)oxolan-2-yl]-1H-1,2,4-triazole-3-carboxamide]
- growth relative to untreated F10R cells [1]: did not effect growth
- reduction in ENT1 RNA levels at relapse relative to during response [2]: 20 fold and 15 fold
- Gli-1 mRNA levels upon resistance relative to normal controls or levels during response [3]: up to 26 fold
- enrichment of 3H ribavirin in eIF4E immunoprecipitations relative to controls ([4]; living cells): 14 fold
- enrichment of 14C ribavirin in the eIF4E immunoprecipitated fraction relative to the IgG control ([4]; parental cell lines): about 20 fold
- drug related toxicity [5]: No drug related toxicity was observed
- reduction in ADK RNA levels at relapse relative to during response [6]: 5 fold

Several values for one entry are separate records, joined by “and”; a condition that tells them apart may be missing. Equal values may be shown once.
